Amino acid sequences for entries named in this document (tags omitted).
UniProt Q9Y303, whole entry, looked up: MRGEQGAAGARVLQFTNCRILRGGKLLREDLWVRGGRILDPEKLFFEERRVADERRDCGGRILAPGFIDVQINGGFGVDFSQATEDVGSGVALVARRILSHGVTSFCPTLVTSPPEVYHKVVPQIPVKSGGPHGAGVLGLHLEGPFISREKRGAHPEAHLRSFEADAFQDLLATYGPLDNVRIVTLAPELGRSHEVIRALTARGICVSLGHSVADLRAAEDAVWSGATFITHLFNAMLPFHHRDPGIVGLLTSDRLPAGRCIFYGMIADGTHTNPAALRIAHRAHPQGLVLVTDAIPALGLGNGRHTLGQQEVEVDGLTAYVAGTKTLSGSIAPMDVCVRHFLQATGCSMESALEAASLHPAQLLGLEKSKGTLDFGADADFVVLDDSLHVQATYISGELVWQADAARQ

According to ChEMBL document CHEMBL3217618, “The use of phosphate bioisosteres in medicinal chemistry and chemical biology” (Medchemcomm, 2012):

How the values were obtained:
[1] = biological target: N-acetylglucosamine-6-phosphate deacetylase (Homo sapiens, UniProt Q9Y303); assay: Inhibition of NagA (unknown origin)
[2] = Inhibition of DGD (unknown origin)

Structure (SMILES) | Ki [1] [nM] | Ki [2] [nM]
CP(=O)(O)N[C@@H]1[C@@H](O)[C@H](O)[C@@H](COP(=O)(O)O)O[C@H]1O | 34 | –
CP(=O)(O)N[C@H](CCC(=O)O)C(=O)O | – | 0.46
